## Measured properties of organic chemicals

Source: data files of OPERA 2.9 (Mansouri et al.), github.com/kmansouri/OPERA.

The melting point is given in degrees Celsius. The boiling point refers to atmospheric pressure (760 mmHg), by the definition of the set. logP is the log10 of the octanol-water partition coefficient; higher is more lipophilic. Water solubility is log10 of mol/L, nominally at 25 °C; higher is more soluble. Vapor pressure is log10 of mmHg; the set covers 15 to 30 °C, mostly 20 to 25 °C. The unbound fraction in human plasma runs from 0 (all bound) to 1 (all free). Clint is human hepatic intrinsic clearance in µL/min per million cells; 0 means that no clearance was seen. "–" marks a cell with nothing listed here.

SMILES	name	mp (°C)	bp (°C)	log Kow	log S (log10 mol/L)	log VP (log10 mmHg)	fu	intrinsic clearance (µL/min/10^6 cells)
COc1ccc(/N=N/c2ccc(/N=N/c3cccc(S(=O)(=O)[O-])c3)cc2OC)cc1.[Na+]	–	282	–	-2.18	–	-13.18	–	–
CC(=O)N(O)CCCCCNC(=O)CCC(=O)N(O)CCCCCNC(=O)CCC(=O)N(O)CCCCCN	Deferoxamine	–	–	-2.2	–	–	0.9	–
Cc1cc(S(=O)(=O)O)c(N)cc1Cl	4-Amino-6-chlorotoluene-3-sulphonic acid	320	–	-0.97	-2.406	–	–	–
CCOC(=O)CCC(=O)CC1(O)C2(Cl)C3(Cl)C4(Cl)C(Cl)(Cl)C5(Cl)C3(Cl)C1(Cl)C5(Cl)C42Cl (stereo not drawn)	Kelevan	–	–	–	-5.06	-4.979	–	–
O=C(O[C@H]1CO[C@H]2[C@@H]1OC[C@H]2OC(=O)c1ccc(O)cc1)c1ccc(O)cc1	1,4:3,6-Dianhydro-2,5-bis-O-(4-hydroxybenzoyl)-D-glucitol	187	–	2.8	-4.132	–	–	–
COc1ccc(C(=O)Nc2ccccc2)cc1N=Nc1c(O)c(C(N)=O)cc2ccccc12	–	331.2	–	4.2	–	-10.43	–	–
Cn1cc(C(O)=Nc2ccc(F)cc2-c2ccc(Cl)c(Cl)c2)c(C(F)F)n1	Bixafen	147	–	–	-5.932	–	–	–
Cc1cn2c(nc1=O)O[C@@H]1[C@@H](O)[C@H](CO)O[C@@H]12	–	–	–	-1.97	–	-5.041	–	–
CC(C)=CCCC(C)=CC#N	Citralva	–	–	3.145	–	-1.557	–	–
Cc1ccc(Nc2c(F)cccc2Cl)c(CC(=O)O)c1	–	–	–	–	-4.728	–	0.02	–
CCCCCCCCCC(=O)Oc1ccc(C(=O)O)cc1	4-decanoyloxybenzoic Acid	140	430	4	-5.425	-5.063	–	–
CC(C)(O)C(=O)c1ccc(C2(C)CC(C)(C)c3cc(C(=O)C(C)(C)O)ccc32)cc1 (stereo not drawn)	–	118.5	–	3.35	-5.937	-9.875	–	–
CCCC1CCC(C2CCC(c3ccc(C)cc3)CC2)CC1.CCCC1CCC(C2CCC(c3ccc(C)cc3)CC2)CC1 (stereo not drawn)	–	–	–	–	-7.104	-5.3	–	–
COc1c(C)c2c(c(O)c1C/C=C(\C)CCC(=O)O)C(=O)OC2	Mycophenolic acid	–	–	2.28	-4.111	-6.495	–	–
CCCCCCCCCCCC[S+](CC)C(C)CC#N.F[B-](F)(F)F (stereo not drawn)	–	24	–	0.75	-1.109	-5.157	–	–
CCOCOC1CCCCCCCCCCC1	(Ethoxymethoxy)cyclododecane	–	–	5.4	-5.335	-2.654	–	–
CC(=O)N1CCOCC1	N-Acetylmorpholine	–	–	-0.81	–	-1.782	–	–
CN(C)Cc1cc(CN(C)C)c(O)c(CN(C)C)c1	2,4,6-Tris(dimethylaminomethyl)phenol	–	–	0.219	–	-1.25	–	–
CCCCCCOC(=O)CC	Hexyl propanoate	–	–	–	-3.399	0.035	–	–
Br.COc1ccc(C)cc1C(CCN(C(C)C)C(C)C)c1ccccc1 (stereo not drawn)	–	181.6	–	0.103	-1.946	-9.949	–	–
Cn1cc(C(=O)Cl)c(C(F)F)n1	3-(Difluoromethyl)-1-methyl-1H-pyrazole-4-carbonyl chloride	7.5	272.5	0.253	-1.794	-0.997	–	–
CCC1(C)Nc2cccc3cccc(c23)N1	2-Ethyl-2-methyl-2,3-dihydroperimidine	24	–	2.61	-3.248	-5.121	–	–
O=C1Cc2ccccc2O1	(3H)-Benzofuran-2-one	–	–	1.347	-1.511	-3.011	–	–
CC(O)CCC1CCCCC1 (stereo not drawn)	alpha-Methylcyclohexanepropanol	–	–	3.3	-2.767	-0.204	–	–
COc1ccc(NC(=O)c2cc3ccccc3cc2O)cc1	2-Naphthalenecarboxamide, 3-hydroxy-N-(4-methoxyphenyl)-	233	–	2.9	-5.263	–	–	–
CC(C)c1cc(C(C)C)c(N=C=O)c(C(C)C)c1N=C=O	2,4,6-Triisopropyl-m-phenylene diisocyanate	–	305.4	–	–	-3.037	–	–
Cc1ccc(-n2nccn2)c(C(=O)O)c1	5-Methyl-2-(2H-1,2,3-triazol-2-yl)benzoic acid	173.9	–	–	–	-8.16	–	–
CCCCCCC(O)CO (stereo not drawn)	1,2-Octanediol	–	–	2.1	–	-2.813	–	–
CC(C)(c1ccc(O)cc1)c1ccc(O)cc1	Bisphenol A	–	360	–	–	-8.714	–	–
C=C(CCCCCC)CCCCCCCC	7-Methylenepentadecane	-36	–	–	–	-1.286	–	–
Cc1ccc(OCCCS(=O)(=O)[O-])c([N+](=O)[O-])c1.[Na+]	Sodium 3-(4-methyl-2-nitrophenoxy)propane-1-sulfonate	82	–	-2.57	–	–	–	–
O=C(O[C@@H]1C[C@@H]2C[C@@H]3C[C@H](C1)N2CC3=O)c1c[nH]c2ccccc12	Dolasetron	–	–	2.1	-3.094	–	–	–
CCNc1ccccc1	N-ethylaniline	–	–	–	–	–	0.214	21.8
C=CCCCCCCCCO	9-Decen-1-ol	–	–	–	-3.048	-1.426	–	–

Excerpt, the opening 4 entries:

SMILES	name	mp (°C)	bp (°C)	log Kow	log S (log10 mol/L)	log VP (log10 mmHg)	fu	intrinsic clearance (µL/min/10^6 cells)
COc1ccc(/N=N/c2ccc(/N=N/c3cccc(S(=O)(=O)[O-])c3)cc2OC)cc1.[Na+]	–	282	–	-2.18	–	-13.18	–	–
CC(=O)N(O)CCCCCNC(=O)CCC(=O)N(O)CCCCCNC(=O)CCC(=O)N(O)CCCCCN	Deferoxamine	–	–	-2.2	–	–	0.9	–
Cc1cc(S(=O)(=O)O)c(N)cc1Cl	4-Amino-6-chlorotoluene-3-sulphonic acid	320	–	-0.97	-2.406	–	–	–
CCOC(=O)CCC(=O)CC1(O)C2(Cl)C3(Cl)C4(Cl)C(Cl)(Cl)C5(Cl)C3(Cl)C1(Cl)C5(Cl)C42Cl (stereo not drawn)	Kelevan	–	–	–	-5.06	-4.979	–	–

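These are experimental values that the OPERA curators gathered from public databases to train and test their QSAR models. One number stands for a compound and property, with no spread given. Method and conditions are not stated for these values. A value may pool stereoisomers or salt forms, and the file does not say which form was measured. Some upstream entries may be estimates or bounds without being marked so.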